Biological target: H3 tetra-acetylated nucleosome (H3 K9, 14, 18, 23 acetylated; Xenopus laevis histone octamer on Cy5 labelled 0W0 DNA) (Xenopus laevis) (UniProt P84233)

initial rate of nucleosome sliding by RSC, H3 acetylated nucleosomes against wild type H3 nucleosomes as reference in the same reaction: 14.3 fold
Substance: RSC complex, P32597 1-1359; Q06488 1-889; Q06639 1-885; P38781 1-883; Q02206 1-625; P25632 1-483; P32832 1-435; P43609 1-557; Q06168 1-426; Q12406 1-477; Q05123 1-467
